The text below walks through data of patent publication US8822420B2, “Peptides and aptamers thereof as specific modulators of mutant p53 function” (Universita Degli Studi di Trieste, priority 2008, dated 2014).

Assay [1] addresses T1, p53 R273H (Homo sapiens, UniProt P04637, R273H).
T1 construct: expression of full-length point mutants (hereinafter identified also as mut-p53 or mutant p53); expressed in transfected cells; host or cells: H1299 (p53-null)
Description: Co-immunoprecipitation of EGFP-TNV-PAs with p53 R273H in H1299 cells. The class given is binding. Particulars: transient transfection.

Assay [2] has as its target T2, p53 R175H (Homo sapiens, UniProt P04637, R175H).
T2 construct: expression of full-length point mutants (hereinafter identified also as mut-p53 or mutant p53); expressed in transfected cells; host or cells: H1299 (p53-null)
Description: Co-immunoprecipitation of EGFP-TNV-PAs with p53 R175H in H1299 cells. The class given is binding. The conditions noted are these: H1299 cells co-transfected with p53 R175H and EGFP-TNV-PAs, IP anti-GFP.

Assay [3] deals with MDA-MB-468 cells. Description: AnnexinV-PE-Cyan5 staining by flow cytometry, MDA-MB-468 cells. The conditions noted are these: MDA-MB-468, GFP positive cells, 36 hours after transfection. The class given is cell-based.
Assay [4] has as its system Sk-Br-3 cells. In words: FACS analysis of DNA content (propidium iodide) of EGFP-positive Sk-Br-3 cells. Type of assay: cell-based.
The subject of assay [5] is Sk-Br-3 cells. Description: AnnexinV-PE-Cyan5 staining by flow cytometry, Sk-Br-3 cells. Type of assay: cell-based. The conditions noted are these: Sk-Br-3, GFP positive cells, 36 hours after transfection. (In general: Flow cytometry measures light scatter and fluorescence of single cells or particles in a stream.)
Assay [6] relates to Sk-Br-3 cells. In words: PARP cleavage (p85) by Western Blot in Sk-Br-3 cells. The class given is cell-based. On the technique in general: A western blot detects proteins with antibodies after separation by electrophoresis.

DVADWESCGEYWCYRV [sA79]: the “binding to p53 R273H by co-immunoprecipitation” value in assay [1] was “A stronger interaction was also observed”. Also, in assay [2], the “binding to p53 R175H by co-immunoprecipitation” value is “A stronger interaction was also observed”. Further, the AnnexinV positive cells result in assay [3] and in assay [5] was “approximately 30%” in each case. Moreover, the “apoptotic response (sub-G1) compared with Etoposide treatment alone” value in assay [4] was “comparable to that observed upon drug treatment alone”. In addition, in assay [4] (PRIMA-1 100 μM for 20 hours), the “sub-G1 peak compared with PRIMA-1” value is recorded as “comparable to that induced by PRIMA-1”. Also, the “cleaved p85 fragment of PARP-1” value in assay [6] is “evident increase”.
